Reference: PMC9012132 (2021)

Key:
BPTF bromodomain [1] = target: T1, BPTF bromodomain (Homo sapiens, UniProt Q12830); settings: read-out: Kd for BPTF bromodomain; first reported BPTF inhibitor; cited from earlier work
BPTF bromodomain [2] = target: T1, BPTF bromodomain; test: Reported in vitro affinity for BPTF bromodomain; format: binding; settings: comparison value for BPTF

COC(=O)c1cccc(NC(=O)NC2CCN(c3ccnc(Nc4ccc(F)cc4)n3)C2)c1 (centres unmarked) [AU1]
Kd (BPTF bromodomain [1]): 2800 nM | ligand efficiency (BPTF bromodomain [2]): 0.22
